In patent US20210077420A1, “Methods of Treatment of Gout” (priority 2017, published 2021):

Test: Solubility enhancement of MSU crystals in aqueous NaCl solution (Example 1)
Conditions: 2.5 mL enhancer + 2.5 mL NaCl solution, 16 h; control (water only) = 100%

SMILES | % vs control [%]
OCc1ccccc1 [Benzyl alcohol] | 249
C[S+](C)[O-] [Dimethyl sulfoxide] | 126
CCCCCCCC/C=C\CCCCCCCC(=O)O [Oleic acid] | 286
CCCCCCCCCCCCCC(=O)OC(C)C [Isopropyl myristate] | 202
